For test [1], the target named is T1, C-X-C chemokine receptor type 4 (Homo sapiens, UniProt P61073). Briefly: Agonist activity at CXCR4 in human CCRF-CEM cells assessed as induction of Ca2+ flux measured for 90 secs by calcium dye-based fluorescence assay. It is filed as functional, cell-based.
Test [2] concerns the target T1, C-X-C chemokine receptor type 4. Kind of test: Antagonist activity at human CXCR4 in CCRF-CEM cells assessed as decrease in SDF-1alpha stimulated Ca2+ flux preincubated for 25 mins followed by SDF-1alpha addition measured for 90 secs by calcium dye-based fluorescence assay. Format: functional, cell-based.

Chains of the proteins cited; added tags and fusions are not shown.
UniProt P61073, whole entry: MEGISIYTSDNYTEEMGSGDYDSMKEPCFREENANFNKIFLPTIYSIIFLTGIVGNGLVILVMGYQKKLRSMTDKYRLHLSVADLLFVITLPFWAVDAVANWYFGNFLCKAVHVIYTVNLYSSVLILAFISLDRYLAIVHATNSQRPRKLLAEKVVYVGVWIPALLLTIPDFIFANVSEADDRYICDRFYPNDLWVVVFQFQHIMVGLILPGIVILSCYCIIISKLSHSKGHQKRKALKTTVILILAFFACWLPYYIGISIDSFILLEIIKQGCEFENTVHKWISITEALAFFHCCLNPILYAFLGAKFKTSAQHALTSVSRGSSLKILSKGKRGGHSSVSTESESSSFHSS

pEC50, pIC50: −log10 of the molar value.

As for `c1ccc2c(c1)CN[C@@H](CN(Cc1ccc(CNCC3CCOCC3)cc1)[C@H]1CCCc3cccnc31)C2`, the negative logarithm of the EC50 (pEC50) in test [1] is less than 4.52.

In the case of `NCc1ccc(CN(C[C@H]2Cc3ccccc3CN2)[C@H]2CCCc3cccnc32)cc1`, the pEC50 in test [1] was less than 4.52.

With `c1cncc(CNCc2ccc(CN(C[C@H]3Cc4ccccc4CN3)[C@H]3CCCc4cccnc43)cc2)c1`, in test [1], the pEC50 was less than 4.52.

For `c1ccc(CNCCCCN(C[C@H]2Cc3ccccc3CN2)[C@H]2CCCc3cccnc32)nc1`, the pIC50 in test [2] was 7.05. Also, the pEC50 in test [1] was less than 4.52.

The record behind these values is ChEMBL document CHEMBL4052827, “Discovery of Tetrahydroisoquinoline-Containing CXCR4 Antagonists with Improved in Vitro ADMET Properties” (J Med Chem, 2018).
